ChEMBL document CHEMBL4765268 (Eur J Med Chem, 2020)

Amino acid sequences for entries named in this document (tags omitted). A change or cut given only in a name is not applied to a line headed by its entry.
UniProt P51452: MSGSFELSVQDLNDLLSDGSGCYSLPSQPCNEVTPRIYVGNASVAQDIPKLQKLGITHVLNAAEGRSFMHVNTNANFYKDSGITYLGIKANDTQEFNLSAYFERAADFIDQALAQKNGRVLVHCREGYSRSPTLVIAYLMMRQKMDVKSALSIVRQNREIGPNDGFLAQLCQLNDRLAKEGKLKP
UniProt Q9Y2R2, whole entry: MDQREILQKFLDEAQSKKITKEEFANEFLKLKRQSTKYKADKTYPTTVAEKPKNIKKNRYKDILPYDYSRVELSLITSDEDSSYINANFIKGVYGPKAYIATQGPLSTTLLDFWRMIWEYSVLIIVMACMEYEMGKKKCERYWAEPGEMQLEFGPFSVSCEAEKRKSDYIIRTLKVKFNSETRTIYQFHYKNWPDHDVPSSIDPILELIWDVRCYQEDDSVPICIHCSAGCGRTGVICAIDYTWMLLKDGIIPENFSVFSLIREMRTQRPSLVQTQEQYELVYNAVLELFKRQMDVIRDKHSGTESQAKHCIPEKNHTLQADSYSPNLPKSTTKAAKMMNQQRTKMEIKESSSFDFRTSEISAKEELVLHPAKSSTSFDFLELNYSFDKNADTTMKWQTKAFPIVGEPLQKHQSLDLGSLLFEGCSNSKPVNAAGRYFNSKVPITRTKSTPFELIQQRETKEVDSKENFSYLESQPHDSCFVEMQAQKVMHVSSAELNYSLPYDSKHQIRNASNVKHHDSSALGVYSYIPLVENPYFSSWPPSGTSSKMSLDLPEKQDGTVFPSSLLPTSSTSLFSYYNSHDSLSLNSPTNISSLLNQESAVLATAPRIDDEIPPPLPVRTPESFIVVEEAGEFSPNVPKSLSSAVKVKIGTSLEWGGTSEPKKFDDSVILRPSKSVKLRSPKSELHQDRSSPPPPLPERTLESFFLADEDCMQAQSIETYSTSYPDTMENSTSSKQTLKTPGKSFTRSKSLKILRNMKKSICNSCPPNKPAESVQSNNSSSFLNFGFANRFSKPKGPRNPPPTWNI

How the values were obtained:
[1] = target: T1, Tyrosine-protein phosphatase non-receptor type 1 (Homo sapiens, UniProt P18031); assay: Inhibition of PTP1B (unknown origin)
T1 sequence (P18031 whole entry): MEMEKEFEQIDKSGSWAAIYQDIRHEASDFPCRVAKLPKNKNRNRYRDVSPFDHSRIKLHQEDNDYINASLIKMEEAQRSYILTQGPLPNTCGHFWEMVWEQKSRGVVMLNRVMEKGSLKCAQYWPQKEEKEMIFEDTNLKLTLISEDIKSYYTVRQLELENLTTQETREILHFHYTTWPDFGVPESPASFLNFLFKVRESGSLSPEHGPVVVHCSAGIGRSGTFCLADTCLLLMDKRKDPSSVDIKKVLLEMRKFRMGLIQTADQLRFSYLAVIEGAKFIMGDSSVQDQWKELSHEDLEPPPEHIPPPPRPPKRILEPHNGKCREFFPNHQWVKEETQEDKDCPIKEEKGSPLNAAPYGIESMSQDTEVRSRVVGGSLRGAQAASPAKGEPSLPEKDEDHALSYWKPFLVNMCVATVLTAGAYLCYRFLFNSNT

[2] = target: T2, Receptor-type tyrosine-protein phosphatase O (Homo sapiens, UniProt Q16827); assay: Inhibition of GLEEP (unknown origin)
T2 sequence (Q16827 whole entry): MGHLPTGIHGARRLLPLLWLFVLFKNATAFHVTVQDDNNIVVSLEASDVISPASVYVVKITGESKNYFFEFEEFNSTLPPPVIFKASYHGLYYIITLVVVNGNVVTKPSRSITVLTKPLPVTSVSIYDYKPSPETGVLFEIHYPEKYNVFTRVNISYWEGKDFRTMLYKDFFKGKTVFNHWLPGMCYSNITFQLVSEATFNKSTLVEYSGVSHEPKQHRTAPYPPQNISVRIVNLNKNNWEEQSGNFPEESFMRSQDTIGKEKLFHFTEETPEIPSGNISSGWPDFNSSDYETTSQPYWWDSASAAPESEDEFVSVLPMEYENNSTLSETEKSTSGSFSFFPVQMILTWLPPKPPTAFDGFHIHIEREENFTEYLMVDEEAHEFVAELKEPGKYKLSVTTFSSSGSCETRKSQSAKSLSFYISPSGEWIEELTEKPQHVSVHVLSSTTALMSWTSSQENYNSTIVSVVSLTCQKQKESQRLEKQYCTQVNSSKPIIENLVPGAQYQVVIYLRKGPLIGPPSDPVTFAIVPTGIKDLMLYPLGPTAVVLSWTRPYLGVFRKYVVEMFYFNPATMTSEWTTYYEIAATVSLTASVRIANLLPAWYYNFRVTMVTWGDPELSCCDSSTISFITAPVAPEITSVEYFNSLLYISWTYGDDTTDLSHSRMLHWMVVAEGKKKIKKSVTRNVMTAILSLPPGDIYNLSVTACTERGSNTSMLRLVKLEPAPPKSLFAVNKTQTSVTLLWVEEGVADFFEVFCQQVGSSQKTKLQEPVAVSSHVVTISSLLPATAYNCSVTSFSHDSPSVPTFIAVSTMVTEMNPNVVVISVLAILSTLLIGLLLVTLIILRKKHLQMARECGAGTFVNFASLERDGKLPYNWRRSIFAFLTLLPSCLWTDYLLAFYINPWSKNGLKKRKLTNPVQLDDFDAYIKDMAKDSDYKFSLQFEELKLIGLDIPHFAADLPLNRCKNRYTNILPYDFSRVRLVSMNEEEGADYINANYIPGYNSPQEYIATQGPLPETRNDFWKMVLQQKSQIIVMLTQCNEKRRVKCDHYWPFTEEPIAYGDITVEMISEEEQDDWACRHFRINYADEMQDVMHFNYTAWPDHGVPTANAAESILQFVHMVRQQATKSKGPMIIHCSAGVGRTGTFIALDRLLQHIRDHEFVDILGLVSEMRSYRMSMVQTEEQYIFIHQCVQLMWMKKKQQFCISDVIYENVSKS

[3] = target: T3, Tyrosine-protein phosphatase non-receptor type 7 (Homo sapiens, UniProt P35236); assay: Inhibition of HEPTP (unknown origin)
T3 sequence (P35236 whole entry): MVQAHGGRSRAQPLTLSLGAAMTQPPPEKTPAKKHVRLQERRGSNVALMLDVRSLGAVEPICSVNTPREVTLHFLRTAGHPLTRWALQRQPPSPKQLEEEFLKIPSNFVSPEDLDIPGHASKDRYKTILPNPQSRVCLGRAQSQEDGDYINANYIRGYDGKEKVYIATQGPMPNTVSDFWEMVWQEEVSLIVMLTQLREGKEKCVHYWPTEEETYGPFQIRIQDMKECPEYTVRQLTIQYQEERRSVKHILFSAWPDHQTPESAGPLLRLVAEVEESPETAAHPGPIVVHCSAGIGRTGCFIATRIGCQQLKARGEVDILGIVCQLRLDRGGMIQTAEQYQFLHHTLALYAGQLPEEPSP

[4] = target: Dual specificity protein phosphatase 3 (Homo sapiens, UniProt P51452); assay: Inhibition of VHR (unknown origin)
[5] = target: Tyrosine-protein phosphatase non-receptor type 22 (Homo sapiens, UniProt Q9Y2R2); assay: Inhibition of LYP (unknown origin)

| SMILES | IC50 [1] [µM] | IC50 [2] [µM] | IC50 [3] [µM] | IC50 [4] [µM] | IC50 [5] [µM] |
| --- | --- | --- | --- | --- | --- |
| O=C(O)c1cccc2c1NC(c1cccc(Br)c1)C1CC(Sc3ccccc3[N+](=O)[O-])C(Cl)C21 (centres undefined) | 13.3 | 18.3 | 48.2 | 56.9 |  |
| O=C(O)c1cccc2c1NC(c1ccc(F)cc1)C1CC(Sc3ccccc3[N+](=O)[O-])C(Cl)C21 (centres undefined) | 67.6 | 41.9 | 20.1 | 26 | 14.5 |
